# Binding of CDR-mutated scFvs to a peptide of the spike HR2 region

From the AlphaSeq antibody data of Li et al. 2023 (doi:10.1038/s41467-023-39022-2), copy in the FLAb collection.

Target: peptide PDVDLGDISGINAS, taken from heptad repeat 2 (HR2) of SARS-CoV-2 spike.

Each scFv is VH, the linker GGGGSGGGGSGGGGS, VL, as in the parent Ab-14, and differs from it in the CDRs of the heavy chain only.
VH: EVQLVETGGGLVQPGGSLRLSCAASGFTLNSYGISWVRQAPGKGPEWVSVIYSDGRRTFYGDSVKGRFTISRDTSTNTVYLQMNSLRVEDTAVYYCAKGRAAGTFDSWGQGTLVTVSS
VL: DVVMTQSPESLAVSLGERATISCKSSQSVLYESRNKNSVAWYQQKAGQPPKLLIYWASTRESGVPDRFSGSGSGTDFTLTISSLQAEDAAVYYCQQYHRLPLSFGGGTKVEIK

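Phage display of a naive human antibody library on the peptide gave the parent. This is the validation round: designs drawn from the data on random variants, tested in the same kind of assay. Their group label is 14H_En_Gen (En: ensemble of fine-tuned language models; Gen: genetic algorithm). The scFvs were displayed on barcoded MATa yeast, the peptide on MATalpha yeast. Pairs that bind mate more often; barcode pairs of the diploids are counted by sequencing. Read counts were normalised to the haploid input and turned into Kd by a linear fit to BCL2-family pairs of known affinity, for each replicate. Each pool was mated in six replicate cultures.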

The parent's heavy chain CDRs are GFTLNSYGIS, VIYSDGRRTFYGDSVK, GRAAGTFDS; each variant's own CDRs replace them letter for letter.
The read-out is the apparent dissociation constant on a log10 scale (nM): the lower, the stronger.
Replicates are averaged; those with no signal do not enter the mean.
"n.d." means that the variant was in the library but no mating with the target was seen in that replicate; the authors take this as a sign of poor binding, and no number exists.
Values of this round are not directly comparable with the first-round values of the same sequences.

| CDR-H1 | CDR-H2 | CDR-H3 | log10 Kd (nM) by replicate | log10 Kd (nM), mean | signal with controls |
|---|---|---|---|---|---|
| GFDLNEYGIS | VIYADGMRTAYSDSVK | GTVAGTFDI | -0.67 -0.95 -0.87 -0.87 -0.99 -0.26 | -0.77 | 0 of 18 |
| GFDLEEYGIS | VIYADGSRTAYADSVK | GNVAGTFDL | -0.17 -0.44 -0.10 -0.44 -0.48 -0.29 | -0.32 | 0 of 18 |
| GFDLNEYGIS | VIYADGVRTAYSDSVK | GEVAGTFDQ | 0.80 0.56 0.44 0.23 0.50 0.55 | 0.51 | 0 of 18 |
| GFDLDEYGIS | VIYADGMRTAYADSVK | GENAGTFDA | 0.21 0.13 -0.20 -0.22 -0.14 0.01 | -0.04 | 0 of 18 |
| GFDLNEYGIS | VIYADGMRTAYSDNVK | GNQAGTFDI | -0.56 -0.15 0.69 1.01 1.05 0.39 | 0.41 | 0 of 18 |
| GFDLNEYGIS | VIYADGVRKAYADSVK | GQNAGTFDI | -0.50 -1.03 -0.97 -1.17 -0.69 -0.52 | -0.82 | 0 of 18 |
| GFDLNEYGIS | VIYADGLRTAYADSVK | GENAGTFDV | 0.15 0.71 0.01 0.41 0.46 -0.09 | 0.27 | 0 of 18 |
| GFDLNEYGIS | VIYADGKRTAYVDSVK | GQVAGTFDV | -0.27 -0.65 -0.60 -0.71 -0.67 -0.27 | -0.53 | 0 of 18 |
| GFDLNEYGIS | VIYADGRRTAYIDSVK | GTNAGTFDV | -0.55 -0.53 -0.51 -0.75 -0.64 -0.57 | -0.59 | 1 of 18 (1.58) |
| GFDLNEYGIS | VIYADGMRTFYADSVK | GNTAGTFDQ | -0.46 -0.71 -0.89 -0.99 -0.61 -0.55 | -0.70 | 1 of 18 (0.78) |
| GFDLNEYGIS | VIYADGMRTAYANSVK | GNTAGTFDV | 0.21 -0.13 -0.02 -0.55 0.07 0.17 | -0.04 | 0 of 18 |
| GFDLNEYGIS | VIYADGMRTAYTDSVK | GETAGTFDV | -0.02 -0.09 -0.26 -0.22 0.01 -0.10 | -0.11 | 2 of 18 (2.68) |
| GFDLNEYGIS | VIYADGIRTAYADDVK | GNVAGTFDV | 0.46 -0.17 -0.25 -0.19 -0.30 0.34 | -0.02 | 0 of 18 |
| GFDLNEYGIS | VIYADGKRTFYADSVK | GETAGTFDQ | n.d. n.d. n.d. n.d. n.d. n.d. | n.d. | 0 of 18 |
| GFDLNEYGIS | VIYADGMRTAYADSVK | GEHAGTFDI | -0.86 -1.08 -1.14 -0.82 -1.32 -1.36 | -1.10 | 0 of 18 |
| GFDLNEYGIS | VIYADGMRKFYADDVK | GNVAGTFDV | -0.89 -0.16 -0.53 -1.03 -0.85 -0.68 | -0.69 | 1 of 18 (1.51) |
| GFDLNEYGIS | VIYADGVRTAYIDSVK | GNQAGTFDV | n.d. n.d. n.d. n.d. n.d. n.d. | n.d. | 0 of 18 |
| GFDLDEYGIS | VIYADGKRTAYADSVK | GTNAGTFDI | -0.01 0.67 -0.11 -0.54 0.47 -0.30 | 0.03 | 0 of 18 |
| GFDLNEYGIS | VIYADGKRTAYSDSVK | GQTAGTFDV | -0.49 -0.49 -0.23 -1.02 -0.20 -0.75 | -0.53 | 0 of 18 |
| GFDLNEYGIS | VIYADGVRTAYSDSVK | GNQAGTFDV | n.d. -0.47 -1.84 0.00 -0.75 0.17 | -0.58 | 0 of 18 |
| GFDLNEYGIS | VIYADGVRTAYSDSVK | GNEAGTFDI | 0.16 -0.18 0.09 -0.39 -0.20 -0.15 | -0.11 | 0 of 18 |
| GFDLDEYGIS | VIYADGSRTYYADSVK | GENAGTFDV | 0.33 0.11 -0.01 0.61 0.12 0.02 | 0.19 | 0 of 18 |
| GFDLDEYGIS | VIYADGRRKAYADSVK | GENAGTFDV | 0.01 -0.55 -0.31 -1.14 -1.27 0.45 | -0.47 | 0 of 18 |
| GFDLNEYGIS | VIYADGKRTAYTDSVK | GNVAGTFDI | 0.01 -0.08 0.87 -0.33 0.19 0.35 | 0.17 | 1 of 18 (1.81) |
| GFDLDEYGIS | VIYADGKRTAYSDSVK | GNNAGTFDM | -0.47 -0.78 -0.57 -0.89 -0.62 -0.50 | -0.64 | 1 of 18 (1.72) |
| GFDLNEYGIS | VIYADGSRTAYADSVK | GEVAGTFDL | -0.08 -0.07 -0.40 -0.34 -0.01 -0.02 | -0.15 | 0 of 18 |
| GFDLNEYGIS | VIYADGVRTAYSDDVK | GNVAGTFDV | 1.28 -0.06 0.57 0.80 0.73 0.43 | 0.63 | 0 of 18 |
| GFDLDEYGIS | VIYADGVRTAYTDSVK | GNQAGTFDV | -0.43 -0.30 -0.42 -0.78 -0.39 -0.72 | -0.51 | 1 of 18 (1.36) |
| GFDLNEYGIS | VIYADGMRTAYADSVK | GSVAGTFDL | -0.50 -0.59 -0.66 -0.88 -0.69 -0.38 | -0.62 | 0 of 18 |
| GFDLNEYGIS | VIYADGMRTAYADNVK | GGNAGTFDV | -0.52 -0.40 -0.61 -0.36 -0.52 -0.14 | -0.43 | 0 of 18 |
| GFDLNEYGIS | VIYADGKRTAYADDVK | GNVAGTFDI | -0.23 -0.30 -0.51 -0.16 -0.42 -0.51 | -0.35 | 1 of 18 (1.79) |
| GFDLNEYGIS | VIYADGRRTAYAESVK | GENAGTFDV | 0.63 2.09 0.88 0.42 -0.03 0.57 | 0.76 | 0 of 18 |
| GFDLNEYGIS | VIYADGMRTAYQDSVK | GEVAGTFDV | -0.47 -0.71 -0.60 -0.72 -0.78 -0.29 | -0.60 | 0 of 18 |
| GFDLDEYGIS | VIYADGVRTAYADSVK | GNQAGTFDI | 0.41 0.17 0.27 0.79 1.11 0.82 | 0.59 | 0 of 18 |
| GFDLDEYGIS | VIYADGVRTSYADSVK | GEVAGTFDV | -0.09 -0.52 -0.52 -0.43 -0.79 0.01 | -0.39 | 0 of 18 |
| GFDLNEYGIS | VIYADGMRTAYTDSVK | GTNAGTFDL | -0.23 -0.35 0.14 -0.47 -0.31 0.07 | -0.19 | 0 of 18 |
| GFDLNEYGIS | VIYADGKRTAYVDSVK | GNVAGTFDT | -0.46 -0.57 -0.53 -0.77 -0.47 -0.62 | -0.57 | 0 of 18 |
| GFNLDEYGIS | VIYADGQRTAYADSVK | GEVAGTFDL | n.d. 2.47 n.d. 1.16 n.d. 1.90 | 1.84 | 0 of 18 |
| GFDLNEYGIS | VIYADGQRTFYSDSVK | GENAGTFDV | 0.04 0.12 -0.03 -0.14 -0.43 0.25 | -0.03 | 0 of 18 |
| GFDLNEYGIS | VIYADGRRTYYADSVK | GNVAGTFDM | -0.32 0.05 0.18 -0.24 -0.24 0.17 | -0.07 | 0 of 18 |
| GFDLNEYGIS | VIYADGMRTAYADSVK | GEEAGTFDV | 0.96 0.86 0.76 1.42 1.36 1.17 | 1.09 | 0 of 18 |
| GFDLNEYGIS | VIYADGMRTQYADSVK | GNVAGTFDV | -0.26 0.02 -0.39 -0.43 -0.60 -0.14 | -0.30 | 0 of 18 |
| GFDLNEYGIS | VIYADGLRTAYADDVK | GNVAGTFDI | n.d. n.d. n.d. n.d. n.d. n.d. | n.d. | 1 of 18 (2.48) |
| GFDLNEYGIS | VIYADGRRTAYADNVK | GEVAGTFDL | -1.12 -1.23 -0.53 -1.47 -1.42 -0.25 | -1.00 | 0 of 18 |
| GFDLNEYGIS | VIYADGRRTYYADSVK | GNEAGTFDV | -0.21 -0.18 -0.14 0.26 -0.03 -0.36 | -0.11 | 0 of 18 |
| GFDLNEYGIS | VIYADGMRTAYVDDVK | GQNAGTFDV | -0.44 -0.34 -0.25 -0.23 -0.15 -0.16 | -0.26 | 0 of 18 |
| GFDLNEYGIS | VIYADGMRTYYADSVK | GNVAGTFDQ | -0.22 -0.38 -0.18 0.09 -0.59 -0.78 | -0.34 | 0 of 18 |
| GFDLNEYGIS | VIYADGKRTAYADKVK | GQNAGTFDV | -0.79 -1.60 -1.14 -1.51 -1.37 -1.25 | -1.28 | 0 of 18 |
| GFDLNEYGIS | VIYADGKRTAYADSVK | GGNAGTFDT | -0.51 -0.26 -0.47 -0.62 -0.49 -0.45 | -0.46 | 0 of 18 |
| GFDLNEYGIS | VIYADGMRTAYANSVK | GQVAGTFDV | -0.37 -0.58 -0.67 -0.67 -0.41 -0.30 | -0.50 | 0 of 18 |
| GFDLNEYGIS | VIYADGSRTAYADSVK | GENAGTFDV | 0.65 0.44 0.19 -0.12 1.07 0.22 | 0.41 | 0 of 18 |

Background: pairings of all heavy chain designs with three empty control strains gave a value in 1% of cases (median 2.08, 5th percentile 0.84). Values in that range, when seen in few replicates, are hard to tell from nonspecific mating. For each scFv, signals with the empty controls are counted beside the result, with their mean in brackets.
In the paper, a design with two or fewer of six values counts as a poor binder.
The parent sequence was in this pool as ten entries: three were never detected, three once, and four in most replicates, with averages from 0.34 to 2.37.